This assay addresses recombinant human soluble thrombomodulin (rhs-TM), also called ART-123 (human) (UniProt P07204). Description: enzyme capture assay: thrombin captured on a plate coated with rhs-TM/ART-123, washed, captured enzyme read with chromogenic substrate S-2366.

Take “human alpha-thrombin (catalog number RP-43100, Thermo Fisher Scientific) (enzyme)”: the OD 405 at day 1 was 0.569 OD 405 and the OD 405 at day 4 was found to be 1.67 OD 405.

For the origin of these results see patent US20200063116A1.
